Experimental findings from US12691110B2, “Topotecan for proliferative vitreoretinopathy” (Massachusetts Eye and Ear Infirmary, priority 2022, dated 2026) are described below.

This test has as its system C-PVR cells. In words: CyQuant cell proliferation assay in human patient derived primary cultures of PVR. The test is classed as cell-based. Here is the method: Twelve candidate drugs were tested at 2 concentrations at 72 hours for their effects on proliferation and cytotoxicity in C-PVR cells. […] Each anti-proliferative drug was tested at 2 concentrations determined by using the IC50 of each drug. The data was expressed as percent cell inhibition.
The cells were washed and the CyQuant Direct nucleic acid stain was added and incubated at 37 degrees in the incubator. Fluorescence read outs were measured at wavelengths as instructed in the protocol.

Regarding `CC[C@@]1(O)C(=O)OCc2c1cc1n(c2=O)Cc2cc3c(CN(C)C)c(O)ccc3nc2-1` [Topotecan, topotecan], the “synergistic effect in combination with other drugs on proliferation of C-PVR cells” value is listed as 6 out of 10 showed a synergistic effect.
